Literature values as cited in US10948221B1 (priority 2020, dated 2021).

Test system: rat
Settings: in vivo

Question: With [K+].[O-][Br+2]([O-])[O-] [KBrO3] as the compound, how does the “LD50 (oral-rat; mg/kg)” value read?
Answer: 321 mg/kg
